{"source": "paper PMC8067754", "about": "“Active Transport of Hepatotoxic Pyrrolizidine Alkaloids in HepaRG Cells” (International Journal of Molecular Sciences, 2021)", "system": "HepaRG cells", "assay": "Time-dependent PA depletion and PANO formation in cell culture medium of HepaRG cells at 37 °C and 4 °C (LC-MS/MS)", "conditions": "for PA content in cell culture medium, Mean [%]: HepaRG, 700 nM PA, percent of initial PA concentration", "protocol": "In order to measure time-dependent depletion of PA and PANO content in cell culture medium, cells were seeded at a density of 0.2 × 10^6 cells per well in a 6-well plate and cultivated as described in Section 4.2. After four weeks of cultivation, cells were adapted to serum-free medium and medium substituted with insulin, transferrin, selenium (ITS) serum extender (Capricorn Scientific, Ebsdorfergrund, Germany) 48 h prior to PA incubation for optimal LC-MS/MS measurements. […] Samples were taken after 2 h, 4 h, 8 h and 24 h.\nBriefly, chromatographic separation of PA/PANO analytes was achieved on a 50 × 2.1 mm Kinetex ™ 2.6 μm CoreShell EVO C18 100 Å column protected by a SecurityGuard ™ ULTRA EVO C 18 2.1 mm guard column (both Phenomenex, Aschaffenburg, Germany) at a flow rate of 0.4 mL/min on a Shimadzu high performance liquid chromatography (HPLC) apparatus (LC-20AB, SIL-20AC HT, CTO-20AC, CBM-20A, Duisburg, Germany) coupled to an API4000 triple quadrupole MS (Sciex, Darmstadt, Germany). The following MS parameters were used for measurements in positive electrospray ionisation (ESI+) mode: ionisation voltage 2500 V, nebuliser gas 50 psi, heating gas 50 psi, curtain gas 30 psi, temperature 600 °C, collision gas level 7. The substance specific parameters are summarized in Kaltner et al. 2019 [79].", "note": "Several values for one entry are separate records, joined by “and”; a condition that tells them apart may be missing. Identical values can stand only once.", "data": [{"smiles": "CC(C)[C@](O)(C(=O)OCC1=CCN2CC[C@@H](O)[C@@H]12)[C@@H](C)O", "note": "[Lycopsamine, lycopsamine]", "values": [{"measurement": "PA content in cell culture medium, Mean [%]", "setting": "4 °C (cold), 4h", "value": 111.556, "unit": "%"}, {"measurement": "PA content in cell culture medium, Mean [%]", "setting": "4 °C (cold), 8h", "value": 112.264, "unit": "%"}, {"measurement": "PA content in cell culture medium, Mean [%]", "setting": "4 °C (cold), 24h", "value": 108.52, "unit": "%"}, {"measurement": "PA content in cell culture medium, Mean [%]", "setting": "37 °C (warm), 0h", "value": 113.456, "unit": "%"}, {"measurement": "PA content in cell culture medium, Mean [%]", "setting": "37 °C (warm), 8h", "value": 108.305, "unit": "%"}, {"measurement": "PA content in cell culture medium, Mean [%]", "setting": "37 °C (warm), 24h", "value": 117.807, "unit": "%"}, {"measurement": "PA in medium, single replicates (repl.)", "setting": "cold, 2h", "value": "104.784% and 100.653%"}, {"measurement": "PA in medium, single replicates (repl.)", "setting": "cold, 4h", "value": "93.1897% and 99.494%"}, {"measurement": "PA in medium, single replicates (repl.)", "setting": "cold, 8h", "value": 102.472, "unit": "%"}, {"measurement": "PA in medium, Mean [%]", "setting": "cold, 24h", "value": 93.4772, "unit": "%"}, {"measurement": "PA in medium, single replicates (repl.)", "setting": "warm, 2h", "value": "96.4897% and 102.606%"}, {"measurement": "PA in medium, single replicates (repl.)", "setting": "warm, 4h", "value": "86.3336% and 104.251%"}, {"measurement": "PA in medium, single replicates (repl.)", "setting": "warm, 8h", "value": 103.458, "unit": "%"}, {"measurement": "PA in medium, Mean [%]", "setting": "warm, 24h", "value": 102.497, "unit": "%"}, {"measurement": "PA in medium, single replicates (repl.)", "setting": "warm, 24h", "value": "106.777% and 108.062%"}]}]}
